The list shows a part of the results, in another mix than the full data. Calls of active or inactive are those of the source.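 The calls were made as follows: active = inhibition above that plate's mean sample inhibition plus 3 SD (cut at about 26% in these data); inactive = the rest.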

The test can be described thus: nonselective Gq signaling inhibition in CHO cells – cell-based, fluorescence, Fluo-8 calcium dye, counter-screen for OX1R antagonist project, primary screen (AID 463079).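 Also: 0% = ATP-challenged DMSO wells and 100% = DMSO wells without ATP.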 The conditions noted are these: parental CHO-K1, ATP-induced calcium, Fluo-8 fluorescence; at 5.6 µM; active compounds read high. In outline: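 Test system: untransfected parental CHO cell line; also added: ATP stimulus; dosing: 5.6 µM, single dose; signal: calcium-sensitive Fluo-8 fluorescence; measure: percent inhibition of ATP-evoked calcium rise, normalized to controls; benchmarks: low control ATP plus DMSO, high control DMSO only; replication: one well per compound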
(Counterscreens check selectivity or assay interference.)
Usually inhibition stands for the change of the read-out against control, counted positive when it falls. As for `Fc1ccccc1NC1CCN(Cc2ccccc2)CC1`, the inhibition was inactive: 3.36%.

With `Cc1ccc(C(=O)NCC2(N3CCCCC3)CCCCC2)o1`, the inhibition is inactive: -11.6%.

For the molecule `COc1cc(OC)cc(C(=O)NCC2(N3CCCCC3)CCCCC2)c1`, the inhibition is inactive: -20.3%.

With `CN(C)c1ccc(C(=O)NCC2(N3CCCCC3)CCCCC2)cc1`, the inhibition is inactive: -6.84%.

Take `O=C(NCC1(N2CCCCC2)CCCCC1)c1ccco1`: the inhibition is inactive: -13.5%.

Consider `CCN1CCC(Nc2cccc(F)c2)CC1`, for which the inhibition is inactive: -3.41%.

On to `CCCOc1ccc(C(=O)NCC2(N(C)C)CCCCC2)cc1`, for which the inhibition is inactive: -11.2%.

On to `O=C(O)C1(Nc2ccccc2)CCN(Cc2ccccc2)CC1`, for which the inhibition was inactive: 7.73%.

In the case of `CC(C)(C)OC(=O)N1CCC(Nc2ccccc2)CC1`, the inhibition is inactive: -6.95%.

Turning to `CN1CCC(Nc2ccc(F)c(Cl)c2)CC1`, the inhibition was inactive: 3.51%.

Turning to `CCOc1ncccc1C(=O)NCC1(N2CCOCC2)CCCCC1`, the inhibition is inactive: -22.4%.

Turning to `CCCOc1ccc(C)cc1CN(CCCl)CCCl`, the inhibition is inactive: -6.15%.

Turning to `CN1CCC(Nc2ccc(Cl)cc2)CC1`, the inhibition is inactive: -6.24%.

For the molecule `CCC(CO)(C(=O)OC1CN2CCC1CC2)c1ccccc1` (stereo not drawn), the inhibition is inactive: -10.1%.

In the case of `COc1cc(OC)cc(C(=O)NCC2(N3CCOCC3)CCCCC2)c1`, the inhibition is inactive: -9.93%.

Take `COc1cccc(C(=O)N(c2cc(C)cc(C)c2)C2CCN(C(=O)OC(C)(C)C)CC2)c1`: the inhibition is inactive: -20.9%.

In the case of `COc1ccc(C(=O)NCC2(N3CCOCC3)CCCCC2)cc1OC`, the inhibition was inactive: -18.6%.

As to `O=C(NCC1(N2CCOCC2)CCCCC1)c1cc(Br)ccc1Cl`, the inhibition was inactive: -23.8%.

As for `COc1cc(C(=O)NCC2(N3CCOCC3)CCCCC2)cc(OC)c1C`, the inhibition is inactive: -13.6%.

With `CCc1cc(C(=O)NCC2(N3CCCCC3)CCCCC2)sc1C`, the inhibition is inactive: -29.9%.

`O=C(OC1CN2CCC1CC2)C1c2ccccc2C=Cc2ccccc21` (stereo not drawn): the inhibition is inactive: -18.8%.

Regarding `N/C(=N\O)c1c(N)no[n+]1[O-]`, the inhibition was inactive: -4.41%.

Take `CCOC(=O)N1CCC(Nc2ccc(C)cc2)CC1`: the inhibition is inactive: 4.64%.

As to `CC(C)(C)OC(=O)N1CCC(N(C(=O)c2ccccc2)c2ccc(Cl)cc2)CC1`, the inhibition was inactive: -28.2%.

Take `N#Cc1ccc(C(=O)NCC2(N3CCCCC3)CCCCC2)cc1`: the inhibition was inactive: -18.7%.

For the molecule `CCCN1CCC(Nc2cc(OC)cc(OC)c2)CC1`, the inhibition is inactive: -15.4%.

With `c1ccc(CN2CCC(Nc3ccccc3)CC2)cc1`, the inhibition was inactive: -5.71%.

For `CN(C)C1(CNC(=O)c2cccc(C#N)c2)CCCCC1`, the inhibition was inactive: -2.23%.

Take `O=C(NCC1(N2CCCCC2)CCCCC1)c1cccc([N+](=O)[O-])c1`: the inhibition was inactive: -18.5%.

Take `N#CC1(Nc2ccccc2)CCN(CCc2ccccc2)CC1`: the inhibition was inactive: -15.1%.

On to `CCN1CCC(Nc2ccc(Cl)cc2)CC1`, for which the inhibition is inactive: -0.31%.

On to `O=C(NCC1(N2CCCCC2)CCCCC1)c1ccc(OC(F)F)cc1`, for which the inhibition is inactive: -10.4%.

Regarding `CN1CCN(CCOC(=O)C(O)(c2ccccc2)c2ccccc2)CC1`, the inhibition was inactive: 0.36%.

For the molecule `COc1ccc(NC2CCN(C(=O)OC(C)(C)C)CC2)cc1`, the inhibition was inactive: 0.32%.

In the case of `COc1cc(C(=O)NCC2(N3CCCCC3)CCCCC2)ccc1OC(F)F`, the inhibition was inactive: -23.8%.

Regarding `O=C(NCC1(N2CCOCC2)CCCCC1)c1cc(=O)[nH]c2ccccc12`, the inhibition was inactive: -2.42%.

In the case of `O=C(NCC1(N2CCCCC2)CCCCC1)c1cccc(C(F)(F)F)c1`, the inhibition was inactive: -10%.

Take `O=C(NCC1(N2CCOCC2)CCCCC1)c1cc(F)c(F)cc1Cl`: the inhibition was inactive: -12%.

For the molecule `COc1cc(OC)c(C(=O)NCC2(N(C)C)CCCCC2)cc1OC`, the inhibition was inactive: -15.3%.

Regarding `CN(C)c1cccc(C(=O)NCC2(N3CCCCC3)CCCCC2)c1`, the inhibition was inactive: -15.5%.

As for `COc1ccc(CN(CCCl)CCCl)cc1Cl`, the inhibition is inactive: -16.8%.

As to `CC(C)c1ccc(NC2CCN(C(=O)OC(C)(C)C)CC2)cc1`, the inhibition was inactive: -6.57%.

For the molecule `CN1CCC(Nc2cccc(F)c2)CC1`, the inhibition was inactive: 7.8%.

Regarding `O=C(NCC1(N2CCCCC2)CCCCC1)c1cncc(Br)c1`, the inhibition was inactive: -23.7%.

In the case of `CSc1ccccc1C(=O)NCC1(N2CCCCC2)CCCCC1`, the inhibition was inactive: -38.5%.

For `O=C(NCC1(N2CCCCC2)CCCCC1)c1cccs1`, the inhibition is inactive: -13.1%.

On to `O=C(NCC1(N2CCCCC2)CCCCC1)c1ccc(=O)[nH]c1`, for which the inhibition was inactive: -3.15%.

Take `CC(C)(C)OC(=O)N1CCC(N(C(=O)c2ccccc2)c2ccc(F)cc2)CC1`: the inhibition was inactive: -21.5%.

For the molecule `COc1ccc(C(=O)NCC2(N3CCCCC3)CCCCC2)c(OC)c1OC`, the inhibition was inactive: -12.4%.

`COc1ccc(C(=O)NCC2(N3CCCCC3)CCCCC2)cc1`: the inhibition is inactive: -6.52%.

For the molecule `CCOC(=O)N1CCC(Nc2ccc(OC)cc2)CC1`, the inhibition was inactive: 0.06%.

Turning to `COc1ccc(Cl)cc1C(=O)NCC1(N2CCOCC2)CCCCC1`, the inhibition is inactive: -11.6%.

With `N#CC1(Nc2ccccc2)CCN(Cc2ccccc2)CC1`, the inhibition is inactive: -6.17%.

For the molecule `O=C(NCC1(N2CCCCC2)CCCCC1)c1ccc(Cl)s1`, the inhibition is inactive: -20.9%.

`O=C(OC1CN2CCC1CC2)C1c2ccccc2Oc2ccccc21` (stereo not drawn): the inhibition is inactive: -16.1%.

Take `O=C(NCC1(N2CCOCC2)CCCCC1)c1cc2ccccc2o1`: the inhibition is inactive: -11.9%.

For `Cc1cc(C)cc(N(C(=O)c2ccccc2)C2CCN(C(=O)OC(C)(C)C)CC2)c1`, the inhibition was inactive: 4.72%.

Take `O=C(NCC1(N2CCCCC2)CCCCC1)c1ccc(Cl)nc1`: the inhibition was inactive: -28.1%.

Regarding `COc1ccc(NC2CCN(CCc3ccccc3)CC2)c(OC)c1`, the inhibition is inactive: -9.01%.

As to `O=C(NCC1(N2CCCCC2)CCCCC1)c1ccc(F)cc1`, the inhibition is inactive: -13.1%.

Consider `CCOc1ccc(C)cc1CN(CCCl)CCCl`, for which the inhibition was inactive: -5.99%.

In the case of `Cc1ccc(OCC(C)C)c(CN(CCCl)CCCl)c1`, the inhibition was inactive: -7.78%.

As to `CCOC(=O)N1CCC(Nc2cccc(C)c2)CC1`, the inhibition is inactive: -1.34%.

Source of the values: PubChem BioAssay AID463079 (The Scripps Research Institute Molecular Screening Center, 2010).
